# Antibody variant affinities, Ab-14 light chain, assay 1

All variants were tested on one target, the spike HR2 peptide PDVDLGDISGINAS (SARS-CoV-2).

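The starting antibody came from a phage panning campaign against this peptide. AAYL50 was designed without a model: most single CDR substitutions and a random sample of double and triple ones. The scFvs were displayed on barcoded MATa yeast, the peptide on MATalpha yeast. Mating (16 h, 30 °C) was followed by selection of diploids and sequencing of their barcodes. Each replicate has its own calibration line, from reference interactions of the BCL2 family. The assay was run in three technical replicates.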

Each scFv is VH, a (GGGGS)3 linker, VL, as in the parent Ab-14, and differs from it in the CDRs of the light chain only.
VH: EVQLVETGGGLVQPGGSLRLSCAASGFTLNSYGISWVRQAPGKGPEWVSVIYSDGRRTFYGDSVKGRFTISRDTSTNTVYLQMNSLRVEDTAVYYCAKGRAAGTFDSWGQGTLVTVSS
VL: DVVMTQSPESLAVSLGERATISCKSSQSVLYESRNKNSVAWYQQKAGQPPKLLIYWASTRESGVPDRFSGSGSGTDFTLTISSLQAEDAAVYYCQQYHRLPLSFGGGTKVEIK

Each variant is given by its three light chain CDRs, as the data file delimits them; those of the parent are KSSQSVLYESRNKNSVA, WASTRES, QQYHRLPLS. Scale: log10 of Kd in nM, estimated from mating counts; low values are strong binders. A pair that was not seen in that replicate is written "nd"; this usually means weak binding, but a binder can also be missed. Nonspecific signal, from three strains lacking the peptide, appeared in 18% of pairings of library AAYL50, centred on 4.19 (5% of these signals below 2.99); values are not corrected for it. Also given: how often the same scFv was detected with the empty control strains, with their mean in brackets. Parent in this assay: reference entry 0.65, copy in this library 1.68.

CDR-L1,CDR-L2,CDR-L3,log10 Kd (nM) by replicate,empty controls
KSSQSVLYEHRNKNSAA,WASTRES,QQYHRLPCS,nd / nd / nd,0/9
KSSQSVLYESRNKNSVA,WASTTES,QTYHRLPLS,nd / 5.20 / nd,3/9 (3.78)
FSSQSVYYESRNKNSVA,WASTRES,QQYHRLPLC,nd / nd / nd,0/9
KSSQSVLYSSRNKNSVA,WLSTRES,QQYHRLHLS,3.43 / 3.22 / nd,4/9 (4.00)
KSSQSVWYERRNKNSVA,WASTRES,QQQHRLPLS,nd / 3.86 / 3.59,5/9 (4.00)
KSSQSDLYESRNKNSKA,WASTRES,QQYHVLPLS,nd / nd / nd,0/9
KSSQSVLYESRNKNSVH,WTSIRES,QQYHRLPLS,3.81 / nd / nd,2/9 (3.63)
KSSSSVLYESRNKNSVV,WPSTRES,QQYHRLPLS,nd / nd / 4.63,2/9 (4.89)
KSSQSVLYESRNQNSVA,WASTRES,QQAHRHPLS,nd / nd / nd,2/9 (4.55)
KASQSVLYESRNKNSVA,WASTRES,QQYHRLEWS,nd / 2.72 / nd,1/9 (2.75)
KSSQNVLYESRNKNSVA,WASTRES,QIYHRLPLY,2.59 / 2.22 / 2.93,1/9 (3.31)
KSSQSVQYESRNKNCVA,WASTRES,QLYHRLPLS,3.23 / nd / 2.63,0/9
KSSQSVLYESVNKNGVA,WASTRES,QQYHNLPLS,1.32 / 1.16 / 1.31,1/9 (5.37)
KSSQSVLYEMRNKNSVA,WASTRES,QQYHRLPHS,0.99 / 1.37 / 0.99,1/9 (3.74)
KSSQSVLYESRLKNSVA,WLSTREE,QQYHRLPLS,2.41 / 3.01 / 3.06,1/9 (4.98)
KESQSVLYESRNLNSVA,WASTRES,HQYHRLPLS,2.64 / 2.01 / 2.89,2/9 (4.20)
KSSQSSLYLSRNKNSVA,WASTRES,QQRHRLPLS,4.27 / nd / nd,0/9
KSSQSVLYESREKNSDA,WASTRES,QQYHRHPLS,nd / 2.48 / nd,0/9
KSSQSVLYESNNKNSVA,WASTRES,QQYLRLPLG,nd / nd / nd,0/9
KSSQSVLYESRNKNSVA,WAPTRES,LQYHRLWLS,nd / nd / nd,0/9
KSSQNVLYESRNKNSVA,WASTRES,HQYHRLPTS,1.57 / 1.76 / 1.97,3/9 (4.62)
KSSQSVVPESRNKNSDA,WASTRES,QQYHRLPLS,nd / nd / nd,3/9 (3.87)
KSSQPVLYESRNKNSVA,WASTRES,QQYDGLPLS,2.81 / 2.53 / 2.83,5/9 (5.16)
KSSQSVLYESRNKHSVT,WHSTRES,QQYHRLPLS,3.51 / 3.38 / nd,2/9 (4.44)
KSSYPVLYESRNKNSVA,WASTRES,QQYHRLPLM,nd / 2.03 / 2.48,0/9
KSSQSVCYEARNKNSVA,WASTRES,QQYHRLPHS,nd / nd / nd,0/9
KSSQSVLYESRNKNSVA,RESTRES,QQGHRLPLS,nd / nd / nd,0/9
KSSQSVLYTSRNKNSVA,WAKGRES,QQYHRLPLS,nd / 4.66 / nd,3/9 (4.69)
KSSQSVLYETRNKRSVA,WASRRES,QQYHRLPLS,0.49 / 1.00 / 0.77,2/9 (4.06)
KSSQSVAYESRNKNLSA,WASTRES,QQYHRLPLS,nd / nd / nd,0/9
KSSQSTLYEARNKNSVA,WASTRES,QQYHRLPLS,0.90 / 1.18 / 1.24,4/9 (4.19)
KSSQSVLYESDIKNSVA,WASTRES,QQYHRLPLS,1.41 / 1.66 / 1.60,0/9
KSSQQVLYESRNKNSHA,WASTREG,QQYHRLPLS,nd / nd / nd,0/9
KSLQSVLYESRNKNSVA,WASTRES,QQYHRLPLS,0.96 / 1.15 / 1.06,3/9 (4.36)
KSSQSVLYESRNLNVVA,WASTRES,QQYHCLPLS,nd / nd / nd,0/9
KSSQSVLYESRNKQSVA,WASTRES,QQYHRLPLD,nd / nd / nd,1/9 (2.71)
KSSQSVHYEGRNKNSVA,WASTRNS,QQYHRLPLS,0.53 / 1.64 / 0.59,0/9
KSSQSVLYESRNKNWVA,WASTRES,QQYSILPLS,nd / nd / nd,0/9
KSSQSVLYESRNKNSPA,HASTRES,QQYHRLPLE,nd / nd / nd,2/9 (3.98)
KSSQSVFYESWNKNSVA,WASTRES,QQYHRLNLS,nd / 3.09 / nd,1/9 (2.32)
KSSQSVLYESNNNNSVA,WASTDES,QQYHRLPLS,3.52 / nd / nd,1/9 (4.15)
KSSQSVLYESRNKNSVA,PASTRES,YAYHRLPLS,nd / 3.62 / nd,2/9 (4.70)
KSSQSVLYESRNKNSMA,WMSARES,QQYHRLPLS,nd / 4.81 / 6.16,7/9 (4.62)
KSSQSVLYESRNKNSVA,WASTRES,QQYHREYLS,0.51 / 0.78 / 0.92,3/9 (5.08)

The 3 strongest on average among those seen in every replicate, once more:

{"CDR-L1": "KSSQSVLYESRNKNSVA", "CDR-L2": "WASTRES", "CDR-L3": "QQYHREYLS", "log10 Kd (nM) by replicate": "0.51 / 0.78 / 0.92", "empty controls": "3/9 (5.08)"}
{"CDR-L1": "KSSQSVLYETRNKRSVA", "CDR-L2": "WASRRES", "CDR-L3": "QQYHRLPLS", "log10 Kd (nM) by replicate": "0.49 / 1.00 / 0.77", "empty controls": "2/9 (4.06)"}
{"CDR-L1": "KSSQSVHYEGRNKNSVA", "CDR-L2": "WASTRNS", "CDR-L3": "QQYHRLPLS", "log10 Kd (nM) by replicate": "0.53 / 1.64 / 0.59", "empty controls": "0/9"}

The measurements come from Engelhart et al. 2022 (doi:10.1038/s41597-022-01779-4) through the FLAb antibody collection.